In patent US12252481B2, “Anti-viral compounds” (Aligos Therapeutics, Inc., priority 2021, dated 2025):

What was measured:
[1] = system: HeLa cells; assay: Cytotoxicity in HeLa cells without OC43 virus (cell-titer-glo)
Method: HeLa human cervical epithelial cells (ATCC) were used as susceptible host cell lines and were cultured using EMEM media, supplemented with 10% fetal bovine serum (FBS), 1% (v/v) penicillin/streptomycin (P/S), 1% (v/v) HEPES and 1% (v/v) cellgro Glutagro™ supplement (all Corning, Manassas, VA) at 37° C. For the OC43 antiviral assay, 1.5×10^4 HeLa cells per well were plated in 100 μL complete media in white 96-well plates with clear bottoms at 37° C. for up to 24 h to facilitate attachment and allow cells to recover from seeding stresses. Next day, the cell culture medium was removed. Serially diluted compounds in 100 μL assay media (EMEM, 2% FBS, 1% P/S, 1% cellgro Glutagro™ supplement, 1% HEPES) were added to the cells and incubated for 4 H at 37° C. in a humidified 5% CO2 incubator. […] 96-well plates were incubated for 6 (HeLa) days at 33° C.; each plate contains uninfected control wells as well as virus-infected wells that were not treated with compound. Cytotoxicity plates without the addition of OC43 virus were carried out in parallel. At the end of the incubation period, 100 μL cell culture supernatant was replaced with 100 μL cell-titer-glo reagent (Promega, Madison, WI) and incubated for at least 10 min at rt prior to measuring luminescence. Luminescence was measured on a Perkin Elmer (Waltham, MA) Envision plate reader. Antiviral % inhibition was calculated as follows: [(Compound treated cells infected sample)−(no compound infected control)]/[(Uninfected control)−(no compound infected control)]*100; Using GraphPad (San Diego, CA) prism software version 8.3.1, the antiviral dose-response plot was generated as a sigmoidal fit, log(inhibitor) vs response-variable slope (four parameters) model and the EC50 was calculated which is the predicted compound concentration corresponding to a 50% inhibition of the viral cytopathic effect. […]

[2] = system: A549-dual_ACE2_TMPRSS2 cells; conditions: read-out: A549-dual_ACE2_TMPRSS2 (CC50); assay medium without virus, MTS, numeric values
Method: The A549-dual_ACE2_TMPRSS2 cells (InvivoGen Cat #a549-cov2r) were propagated in the growth medium which was prepared by supplementing DMEM (gibco cat no 41965-039) with 10% v/v heat-inactivated FCS and 10 μg/mL blasticidin (InvivoGen ant-bl-05), 100 μg/mL hygromycin (InvivoGen ant-hg-1), 0.5 μg/mL puromycin (InvivoGen ant-pr-1) and 100 μg/mL zeocin (InvivoGen ant-zn-05) in a humidified 5% CO2 incubator at 37° C. The assay medium was prepared by supplementing DMEM (gibco cat no 41965-039) with 2% v/v heat-inactivated FCS.
For antiviral testing, cells were seeded in 96-well plates (Falcon) at a density of 15,000 cells per well in assay medium. After overnight growth, cells were treated with the indicated compound concentrations and infected with a MOI of 0.001 TCID50/cell (final volume 200 μL/well in assay medium). On day 4 p.i. differences in cell viability caused by virus-induced CPE or by compound-specific side effects are analyzed using MTS as described previously (PMID: 22575574).
For toxicity testing, the same experimental setup was used except that assay medium without virus was added to the cells and that an additional control of well without cells was added to the plate.
Table 4 indicates related EC50 and CC50 values for the tested compounds ‘A’ indicates an EC50<100 nM, ‘B’ indicates an EC50 of ≥100 nM and <1000 nM, ‘C’ indicates an EC50≥1000 nM and <10000 nM. For CC50, the values are reported in micromolar (μM). ‘A’ indicates a CC50≥10 μM. ‘B’ indicates a CC50≥1 μM and <10 μM.

## CC(C)(C)[C@H](NC(=O)C(F)(F)F)C(=O)N1C[C@H]2[C@@H]([C@H]1C(=O)N[C@H](C#N)CC1CC3(CC(F)(F)C3)NC1=O)[C@H]1C=C[C@@H]2C1 (single isomer, unassigned) [83a]
[1]
  CC50: > 100 µM
[2]
  CC50: > 10 µM

## CC(C)(C)[C@H](NC(=O)C(F)(F)F)C(=O)N1C[C@H]2[C@@H]([C@H]1C(=O)N[C@H](C#N)CC1CC3(CC(F)(F)C3)NC1=O)[C@H]1C=C[C@@H]2C1 (single isomer, unassigned) [83b]
[1]
  CC50: > 100 µM
[2]
  CC50: > 1 µM

## CC(C)(C(NC(=O)C(F)(F)F)C(=O)N1C[C@H]2[C@@H]([C@H]1C(=O)N[C@H](C#N)C[C@@H]1CCNC1=O)[C@H]1C=C[C@@H]2C1)C(F)(F)F (stereo partly drawn)
[1]
  CC50: > 100 µM
[2]
  CC50: > 1 µM
